Details: porcine lens, 4 h in vitro incubation

In the case of `CCN(CC)c1ccc2c(-c3ccccc3C(=O)O)c3ccc(=[N+](CC)CC)cc-3oc2c1` [Rhodamine-B], the “distribution pattern of dye in the lens (fluorescence microscopy)” value was “distributed slightly deeper into the lens cortex”.

— paper PMC6748671, “Distribution of Small Molecular Weight Drugs into the Porcine Lens: Studies on Imaging Mass Spectrometry, Partition Coefficients, and Implications in Ocular Pharmacokinetics” (Molecular Pharmaceutics, 2019)
